In ChEMBL document CHEMBL4184094, “Spiro-1-benzofuranpiperidinylalkanoic acids as a novel and selective sphingosine S1P5 receptor agonist chemotype” (Bioorg Med Chem Lett, 2018):

Tests used:
Homo sapiens [1] = organism: Homo sapiens; experiment: Selectivity ratio of EC50 for human S1P5 receptor expressed in CHO cells to EC50 for human S1P3 receptor expressed in CHO cells; type: cell-based
Homo sapiens [2] = organism: Homo sapiens; experiment: Selectivity ratio of EC50 for human S1P5 receptor expressed in CHO cells to EC50 for human S1P1 receptor expressed in CHO cells; type: cell-based

| Compound | Ratio EC50 (Homo sapiens [1]) | Ratio EC50 (Homo sapiens [2]) |
| --- | --- | --- |
| Cl.O=C(O)CCN1CCC2(CC1)COc1cc(/C=C/c3c(Cl)cccc3Cl)ccc12 | 100 | 1000 |
| Cc1cc(Cl)c(COc2ccc3c(c2)OCC32CCN(CCC(=O)O)CC2)c(Cl)c1 | 1000 |  |
| O=C(O)CCN1CCC2(CC1)COc1cc(OCc3c(Cl)cccc3OC(F)(F)F)ccc12 | 100 |  |
| CC(CN1CCC2(CC1)COc1cc(OCc3c(Cl)cccc3Cl)ccc12)C(=O)O (configuration not stated) | 100 |  |
| Cl.O=C(O)CCN1CCC2(CC1)COc1cc(C#Cc3ccccc3)ccc12 | 100 | 1000 |
